Assay results published in PubChem BioAssay AID602410 (Johns Hopkins Ion Channel Center, 2012).
Only a part is listed here, and it is no random draw. The source made the active and inactive calls.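 How the source made its calls: active means B-score under library mean minus 4 SD, starting fluorescence ratio at most library mean plus 5 SD; inactive means the rest.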

By UniProt entry, the sequences of proteins in these tests, tags left out.
UniProt O14649, whole entry: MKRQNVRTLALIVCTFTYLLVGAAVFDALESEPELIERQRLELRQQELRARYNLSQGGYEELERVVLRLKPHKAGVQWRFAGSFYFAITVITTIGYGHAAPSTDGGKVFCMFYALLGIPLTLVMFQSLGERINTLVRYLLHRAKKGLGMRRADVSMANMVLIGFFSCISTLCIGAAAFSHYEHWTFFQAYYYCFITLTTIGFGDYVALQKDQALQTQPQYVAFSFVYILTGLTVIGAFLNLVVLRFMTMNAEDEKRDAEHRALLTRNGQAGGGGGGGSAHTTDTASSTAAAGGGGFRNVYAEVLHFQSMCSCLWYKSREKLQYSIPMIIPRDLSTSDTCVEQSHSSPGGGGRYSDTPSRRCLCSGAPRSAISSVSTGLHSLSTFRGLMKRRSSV

Each molecule was assayed against Potassium channel subfamily K member 3 (Homo sapiens) (UniProt O14649) (assay: blockers of TASK1 two-pore potassium channel – CHO cells, FluxOR thallium flux, B-score, primary screen (AID 602410)). Details: CHO-KCNK3 thallium flux, FluxOR fluorescence; at 10 µM.
In the case of `CCC(=O)N(c1ccccc1)C1(COC)CCN(CCn2nnn(CC)c2=O)CC1`, the outcome is reported as “inactive”.
With `CCC(=O)N(c1ccccc1)C1(COC)CCN(CCc2cccs2)CC1` the outcome was “inactive”.
